Measured values: patent US7759499B2, “Compounds as inhibitors of hepatitis C virus NS3 serine protease” (Schering Corporation, priority 2004, dated 2010)

The chains behind the UniProt entries cited, without tags or fusion partners. Residues count along the entry.
UniProt P27958, 1027-1657: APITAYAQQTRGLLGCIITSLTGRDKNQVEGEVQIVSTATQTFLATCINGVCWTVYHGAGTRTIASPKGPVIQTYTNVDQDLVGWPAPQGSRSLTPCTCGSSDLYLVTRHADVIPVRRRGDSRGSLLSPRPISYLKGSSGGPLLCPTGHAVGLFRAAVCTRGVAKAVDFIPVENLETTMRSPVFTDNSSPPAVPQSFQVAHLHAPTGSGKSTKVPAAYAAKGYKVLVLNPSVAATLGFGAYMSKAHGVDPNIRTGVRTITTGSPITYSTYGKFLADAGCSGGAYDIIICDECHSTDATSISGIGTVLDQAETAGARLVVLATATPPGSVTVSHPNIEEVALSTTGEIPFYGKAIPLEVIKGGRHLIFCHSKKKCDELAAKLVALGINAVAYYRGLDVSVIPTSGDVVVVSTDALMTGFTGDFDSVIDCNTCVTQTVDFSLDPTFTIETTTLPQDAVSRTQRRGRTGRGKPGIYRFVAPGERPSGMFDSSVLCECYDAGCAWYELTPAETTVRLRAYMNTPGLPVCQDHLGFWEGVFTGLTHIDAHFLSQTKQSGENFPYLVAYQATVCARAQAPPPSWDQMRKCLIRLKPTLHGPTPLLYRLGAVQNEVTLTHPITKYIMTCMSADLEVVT
UniProt P27958, 1658-1711: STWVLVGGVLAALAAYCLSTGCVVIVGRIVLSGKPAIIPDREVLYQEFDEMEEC

The molecules below were run against Recombinant heterodimeric HCV NS3/NS4A protease (strain 1a) (Hepatitis C virus genotype 1a, UniProt P27958) (assay: Spectrophotometric assay for HCV protease inhibitory activity). Conditions: Table 1, range.
Format: biochemical

SMILES	Ki
CN(C)S(=O)(=O)N(C)C[C@@H](NC(=O)N[C@H](C(=O)N1C[C@H]2[C@@H]([C@H]1C(=O)NC(CC1CCC1)C(=O)C(N)=O)C2(C)C)C(C)(C)C)C(C)(C)C (stereo partly drawn) [Compound 10014]	≤ 0.075 µM
C=CCNC(=O)C(=O)C(CCC)NC(=O)[C@@H]1[C@@H]2[C@H](CN1C(=O)[C@@H](NC(=O)N[C@H](CNS(=O)(=O)N(C)C)C(C)(C)C)C(C)(C)C)C2(C)C (stereo partly drawn) [Compound 10036]	≤ 0.075 µM
CC(C)[C@@H](CN(C)S(=O)(=O)N(C)C)NC(=O)N[C@H](C(=O)N1C[C@H]2[C@@H]([C@H]1C(=O)NC(CC1CCC1)C(=O)C(N)=O)C2(C)C)C(C)(C)C (stereo partly drawn) [Compound 10031]	≤ 0.075 µM
C=CCNC(=O)C(=O)[C@@H](CCC)NC(=O)[C@@H]1[C@@H]2[C@H](CN1C(=O)[C@@H](NC(=O)N[C@H](CN(C)S(=O)(=O)N(C)C)C(C)C)C1CCCCC1)C2(C)C [Compound 10011]	≤ 0.075 µM
C=CCNC(=O)C(=O)C(CCC)NC(=O)[C@@H]1[C@@H]2[C@H](CN1C(=O)[C@@H](NC(=O)N[C@H](CNS(=O)(=O)N(C)C)C(C)C)C1CCCCC1)C2(C)C (stereo partly drawn) [Compound 10035]	0.075 to 0.25 µM
C#CCCC(NC(=O)[C@@H]1[C@@H]2[C@H](CN1C(=O)[C@@H](NC(=O)N[C@H](CN(C)S(=O)(=O)N(C)C1CC1)C(C)(C)C)C(C)(C)C)C2(C)C)C(=O)C(=O)NCC=C (stereo partly drawn) [Compound 10094]	≤ 0.075 µM
C=CCNC(=O)C(=O)C(CC1CC1)NC(=O)[C@@H]1[C@@H]2[C@H](CN1C(=O)[C@@H](NC(=O)N[C@H](CN(C)S(=O)(=O)N(C)C)C(C)(C)C)C1Cc3ccccc3C1)C2(C)C (stereo partly drawn) [Compound 10068]	≤ 0.075 µM
C=CCNC(=O)C(=O)C(CCCC)NC(=O)[C@@H]1[C@@H]2[C@H](CN1C(=O)[C@@H](NC(=O)N[C@H](CNS(=O)(=O)N(C)C)C(C)C)C(C)(C)C)C2(C)C (stereo partly drawn) [Compound 10017]	≤ 0.075 µM
C=CCNC(=O)C(=O)C(CCC)NC(=O)[C@@H]1[C@@H]2[C@H](CN1C(=O)[C@@H](NC(=O)N[C@H](CN(C)S(=O)(=O)N1CCCCC1)C(C)(C)C)C(C)(C)C)C2(C)C (stereo partly drawn) [Compound 10016]	≤ 0.075 µM
C=CCNC(=O)C(=O)C(CCC)NC(=O)[C@@H]1[C@@H]2[C@H](CN1C(=O)[C@@H](NC(=O)N[C@H](CN(C)S(=O)(=O)N(C)C(=O)OC(C)(C)C)C(C)(C)C)C(C)(C)C)C2(C)C (stereo partly drawn) [Compound 10091]	≤ 0.075 µM
C=CCNC(=O)C(=O)C(CCCC)NC(=O)[C@@H]1[C@@H]2[C@H](CN1C(=O)[C@@H](NC(=O)N[C@H](CNS(=O)(=O)N(C)C)C(C)C)C(C)(C)C)C2(C)C (stereo partly drawn) [Compound 10009]	0.075 to 0.25 µM

Same assay, conditions: Table 2, range

SMILES	Ki
C=CCNC(=O)C(=O)C(CCC)NC(=O)[C@@H]1[C@@H]2[C@H](CN1C(=O)[C@@H](NC(=O)N[C@H](CN(C)S(=O)(=O)c1cccs1)C(C)(C)C)C1(C)CCCCC1)C2(C)C (stereo partly drawn) [Compound 11141]	≤ 0.075 µM
C#CCCC(NC(=O)[C@@H]1[C@@H]2[C@H](CN1C(=O)[C@@H](NC(=O)N[C@H](CN(C)S(=O)(=O)C(C)(C)C)C(C)(C)C)C(C)(C)C)C2(C)C)C(=O)C(=O)NCC=C (stereo partly drawn) [Compound 11219]	≤ 0.075 µM
C=CCNC(=O)C(=O)C(CC1CC1)NC(=O)[C@@H]1[C@@H]2[C@H](CN1C(=O)[C@@H](NC(=O)N[C@H](CN(C)S(C)(=O)=O)C(C)C)C(C)(C)C)C2(C)C (stereo partly drawn) [Compound 11021]	≤ 0.075 µM
CC(C)[C@@H](CN(C)S(=O)(=O)c1ccccc1)NC(=O)N[C@H](C(=O)N1C[C@H]2[C@@H]([C@H]1C(=O)NC(CC1CCC1)C(=O)C(N)=O)C2(C)C)C(C)(C)C (stereo partly drawn) [Compound 11217]	≤ 0.075 µM
C=CCNC(=O)C(=O)C(CC1CC1)NC(=O)[C@@H]1[C@@H]2[C@H](CN1C(=O)[C@@H](NC(=O)N[C@H](CN(C)S(=O)(=O)C(C)(C)C)C(C)(C)C)C1Cc3ccccc3C1)C2(C)C (stereo partly drawn) [Compound 11273]	0.075 to 0.25 µM
C=CCNC(=O)C(=O)C(CC1CCC1)NC(=O)[C@@H]1[C@@H]2[C@H](CN1C(=O)[C@@H](NC(=O)N[C@H](CN(C)S(=O)(=O)c1ccccn1)C(C)(C)C)C1Cc3ccccc3C1)C2(C)C (stereo partly drawn) [Compound 11373]	≤ 0.075 µM
C=CCNC(=O)C(=O)C(CCCC)NC(=O)[C@@H]1[C@@H]2[C@H](CN1C(=O)[C@@H](NC(=O)N[C@H](CN(C)S(=O)(=O)CC)C(C)(C)C)C(C)(C)C)C2(C)C (stereo partly drawn) [Compound 11104]	≤ 0.075 µM
CN(CC(C)(C)NC(=O)N[C@H](C(=O)N1C[C@H]2[C@@H]([C@H]1C(=O)NC(CC1CC1)C(=O)C(N)=O)C2(C)C)C(C)(C)C)S(C)(=O)=O (stereo partly drawn) [Compound 11017]	0.075 to 0.25 µM
C=CCNC(=O)C(=O)C(CC1CCC1)NC(=O)[C@@H]1[C@@H]2[C@H](CN1C(=O)[C@@H](NC(=O)N[C@H](CN(C)S(=O)(=O)c1ccccc1)C(C)(C)C)C1CCCCC1)C2(C)C (stereo partly drawn) [Compound 11361]	≤ 0.075 µM
C=CCNC(=O)C(=O)C(CC1CCC1)NC(=O)[C@@H]1[C@@H]2[C@H](CN1C(=O)[C@@H](NC(=O)N[C@H](CN(C)S(C)(=O)=O)C(C)(C)C)C1(C)CCCCC1)C2(C)C (stereo partly drawn) [Compound 11137]	≤ 0.075 µM
CC[C@H](C)[C@@H](CN(C)S(=O)(=O)c1ccccc1)NC(=O)N[C@H](C(=O)N1C[C@H]2[C@@H]([C@H]1C(=O)NC(CC1CCC1)C(=O)C(N)=O)C2(C)C)C(C)(C)C (stereo partly drawn) [Compound 11071]	≤ 0.075 µM
C=CCNC(=O)C(=O)C(CCC)NC(=O)[C@@H]1[C@@H]2[C@H](CN1C(=O)[C@@H](NC(=O)NCC1(N(C)S(C)(=O)=O)CCCCC1)C(C)(C)C)C2(C)C (stereo partly drawn) [Compound 11389]	> 0.25 µM
C=CCNC(=O)C(=O)C(CCC)NC(=O)[C@@H]1[C@@H]2[C@H](CN1C(=O)[C@@H](NC(=O)N[C@H](CN(C)S(C)(=O)=O)C(C)(C)C)C1Cc3ccccc3C1)C2(C)C (stereo partly drawn) [Compound 11263]	≤ 0.075 µM
CC(C)N(C[C@@H](NC(=O)N[C@H](C(=O)N1C[C@H]2[C@@H]([C@H]1C(=O)NC(CC1CCC1)C(=O)C(N)=O)C2(C)C)C(C)(C)C)C(C)(C)C)S(=O)(=O)c1cccs1 (stereo partly drawn) [Compound 11229]	≤ 0.075 µM
CN(C[C@@H](NC(=O)N[C@H](C(=O)N1C[C@H]2[C@@H]([C@H]1C(=O)NC(CC1CCC1)C(=O)C(N)=O)C2(C)C)C1CCCC1)C(C)(C)C)S(=O)(=O)c1cccs1 (stereo partly drawn) [Compound 11231]	≤ 0.075 µM
C=CCNC(=O)C(=O)C(CC1CC1)NC(=O)[C@@H]1[C@@H]2[C@H](CN1C(=O)[C@@H](NC(=O)N[C@H](CN(C)S(=O)(=O)c1cccs1)C(C)(C)C)C1(C)CCCCC1)C2(C)C (stereo partly drawn) [Compound 11140]	≤ 0.075 µM
CCS(=O)(=O)N(C)C[C@@H](NC(=O)N[C@H](C(=O)N1C[C@H]2[C@@H]([C@H]1C(=O)NC(CC1CCC1)C(=O)C(N)=O)C2(C)C)C1(C)CCCCC1)C(C)(C)C (stereo partly drawn) [Compound 11326]	≤ 0.075 µM
C=CCNC(=O)C(=O)C(CC1CC1)NC(=O)[C@@H]1[C@@H]2[C@H](CN1C(=O)[C@@H](NC(=O)N[C@H](CN(Cc1ccccc1)S(C)(=O)=O)C(C)(C)C)C(C)(C)C)C2(C)C (stereo partly drawn) [Compound 11152]	≤ 0.075 µM
C=CCNC(=O)C(=O)C(CCCC)NC(=O)[C@@H]1[C@@H]2[C@H](CN1C(=O)[C@@H](NC(=O)N[C@H](CN(C)S(=O)(=O)c1cccs1)CC(C)(C)C)C(C)(C)C)C2(C)C (stereo partly drawn) [Compound 11086]	0.075 to 0.25 µM
C=CCNC(=O)C(=O)C(CCC(F)(F)F)NC(=O)[C@@H]1[C@@H]2[C@H](CN1C(=O)[C@@H](NC(=O)N[C@H](CN(C)S(=O)(=O)C(C)(C)C)C(C)(C)C)C1Cc3ccccc3C1)C2(C)C (stereo partly drawn) [Compound 11391]	0.075 to 0.25 µM
C=CCNC(=O)C(=O)C(CC1CC1)NC(=O)[C@@H]1[C@@H]2[C@H](CN1C(=O)[C@@H](NC(=O)N[C@H](CN(CC1CC1)S(=O)(=O)c1cccs1)C(C)(C)C)C(C)(C)C)C2(C)C (stereo partly drawn) [Compound 11246]	≤ 0.075 µM
CCCC(NC(=O)[C@@H]1[C@@H]2[C@H](CN1C(=O)[C@@H](NC(=O)N[C@H](CN(C)S(C)(=O)=O)C(C)(C)C)C1(C)CCCCC1)C2(C)C)C(=O)C(N)=O (stereo partly drawn) [Compound 11150]	≤ 0.075 µM
C#CCCC(NC(=O)[C@@H]1[C@@H]2[C@H](CN1C(=O)[C@@H](NC(=O)N[C@H](CN(C)S(=O)(=O)CC)C(C)(C)C)C1Cc3ccccc3C1)C2(C)C)C(=O)C(=O)NCC=C (stereo partly drawn) [Compound 11297]	≤ 0.075 µM
CCCNC(=O)C(=O)C(CC1CCC1)NC(=O)[C@@H]1[C@@H]2[C@H](CN1C(=O)[C@@H](NC(=O)N[C@H](CN(C)S(=O)(=O)c1ccccn1)C(C)(C)C)C1(C)CCCCC1)C2(C)C (stereo partly drawn) [Compound 11369]	0.075 to 0.25 µM

Same assay, conditions: Table 3, range

SMILES	Ki
CC(C)[C@@H](CNS(=O)(=O)c1ccccc1)NC(=O)N[C@H](C(=O)N1C[C@H]2[C@@H]([C@H]1C(=O)NC(CC1CC1)C(=O)C(N)=O)C2(C)C)C(C)(C)C (stereo partly drawn) [Compound 12003]	≤ 0.075 µM
CC(C)[C@@H](CNS(=O)(=O)c1ccccc1)NC(=O)N[C@H](C(=O)N1C[C@H]2[C@@H]([C@H]1C(=O)NC(CC1CCC1)C(=O)C(N)=O)C2(C)C)C(C)(C)C (stereo partly drawn) [Compound 12001]	≤ 0.075 µM

Same assay, conditions: Table 4, range

SMILES	Ki
CC(C)(C)[C@H](NC(=O)N[C@H](CNC(=O)c1ccccc1)C(C)(C)C)C(=O)N1C[C@H]2[C@@H]([C@H]1C(=O)NC(CC1CC1)C(=O)C(N)=O)C2(C)C (stereo partly drawn) [Compound 13021]	≤ 0.075 µM
CCCNC(=O)C(=O)C(CCC)NC(=O)[C@@H]1[C@@H]2[C@H](CN1C(=O)[C@@H](NC(=O)N[C@H](CNC(=O)c1ccccc1)C(C)C)C(C)(C)C)C2(C)C (stereo partly drawn) [Compound 13003]	0.075 to 0.25 µM
C=CCNC(=O)C(=O)C(CCC)NC(=O)[C@@H]1[C@@H]2[C@H](CN1C(=O)[C@@H](NC(=O)N[C@H](CN(C)C(=O)C1CC1)C(C)(C)C)C(C)(C)C)C2(C)C (stereo partly drawn) [Compound 13014]	0.075 to 0.25 µM

Same assay, conditions: Table 5, range

SMILES	Ki
C=CCNC(=O)C(=O)C(CCC)NC(=O)[C@@H]1[C@@H]2[C@H](CN1C(=O)[C@@H](NC(=O)N[C@H](CN(C)C(=O)OC(C)(C)C)C(C)(C)C)C1CCCCC1)C2(C)C (stereo partly drawn) [Compound 14040]	> 0.25 µM
CC(C)OC(=O)N1CCCC(NC(=O)N[C@H](C(=O)N2C[C@H]3[C@@H]([C@H]2C(=O)NC(CC2CCC2)C(=O)C(N)=O)C3(C)C)C(C)(C)C)C1 (stereo partly drawn) [Compound 14027]	0.075 to 0.25 µM
C#CCCC(NC(=O)[C@@H]1[C@@H]2[C@H](CN1C(=O)[C@@H](NC(=O)N[C@H](CN(C)C(=O)OC(C)(C)C)C(C)(C)C)C(C)(C)C)C2(C)C)C(=O)C(N)=O (stereo partly drawn) [Compound 14053]	> 0.25 µM

Same assay, conditions: Table 5A, range

SMILES	Ki
CCCC(NC(=O)[C@@H]1[C@@H]2[C@H](CN1C(=O)[C@@H](NC(=O)N[C@H](CN(C)S(=O)(=O)CC)C(C)(C)C)C1Cc3ccccc3C1)C2(C)C)C(=O)C(=O)NCc1nccs1 (stereo partly drawn) [Compound 11420]	≤ 0.075 µM

Same assay, conditions: Table 6

SMILES	Ki
CCCC(NC(=O)[C@@H]1[C@@H]2[C@H](CN1C(=O)[C@@H](NC(=O)N[C@H](CN(C)S(=O)(=O)CC)C(C)(C)C)C1Cc3ccccc3C1)C2(C)C)C(=O)C(=O)NCc1nccs1 (stereo partly drawn) [Compound 11420]	0.008 µM
